Data from ChEMBL document CHEMBL1149656, “Respiratory syncytial virus fusion inhibitors. Part 6: an examination of the effect of structural variation of the benzimidazol-2-one heterocycle moiety” (Bioorg Med Chem Lett, 2007).
Some compounds may have been tested in ways that are not shown here.

Assay: Cytotoxicity against human Hep2 cells
Format: cell-based
Details: hep-2

## COC(=O)c1ccc(Cn2c(=O)c3ccccc3n(Cc3nc4ccccc4n3CCN(C)C)c2=O)cc1
  CC50: 3.43 µM

## CN(C)CCn1c(Cn2c(=O)n(Cc3ccc(C(=O)O)cc3)c(=O)c3ccccc32)nc2ccccc21
  CC50: 19.9 µM
